# Reference: patent US20230374087A1, “METHOD TO IMPROVE PROTEIN QUALITY CONTROL” (The Johns Hopkins University, priority 2020, published 2023)
# Experiments:
# [1] = tested on: neonatal rat cardiomyocytes (NRCMs); experiment: LDH/MTT cytotoxicity assay after simulated ischemia (SI); settings: NRCMs infected with adenovirus expressing the CHIP variant, SI 48 hours, compared to CHIP-WT
# ubiquitinated proteins = experiment: Western blot of ubiquitinated proteins in NRCMs after SI; format: cell-based, rat; settings: adenovirus CHIP variant, SI 48 hours, compared to CHIP-WT
# Experimental: Tissue and cultured cardiomyocytes were lysed in 1× lysis buffer (Cell Signaling Technology), protein concentration was measured by bicinchoninic acid assay (Pierce), and extracts were subjected to SDS-PAGE using Novex Tris-Glycine Gels (4-20% gradient gel, Life Technologies) or Mini-protean TGX Gels (4-20% gradient gel, Bio-Rad), transferred to nitrocellulose membranes, and probed with various primary antibodies (CHIP (#2080S), Hsc70 (#8444S), p-CHIP S20 (Custom antibody, AbMart Inc., Shanghai, China; Project: 25011-1), Myc (#2276S), GAPDH (#2118S), and α-tubulin (#3878S) (Cell Signaling) and ubiquitin antibody (#SAB4503053) from Sigma), and fluorescence-labeled secondary antibodies (Licor, #926-32211, 926-32210, 926-68023, or 926-68022). Gels were imaged (Odyssey, Licor) and band intensity quantified (Odyssey Software 3.1).
molecule,measurement,setting,value
"CHIP-S20E: CHIP with serine 20 to glutamic acid phospho-mimetic substitution; recombinant protein, adenovirus-expressed, or knock-in mouse (protein, left off: small tags and cut ends, CHIP with serine 20 to glutamic acid phospho-mimetic substitution; recombinant protein, adenovirus-expressed, or knock-in mouse) MKGKEEKEGGARLGAGGGEPEKSPSAQELKEQGNRLFVGRKYPEAAACYGRVITRNPLVAVYYTNRALCYLKMQQHEQALADCRRALELDGQSVKAHFFLGQCQLEMESYDEAIANLQRAYSLAKEQRLNFGDDIPSALRIAKKKRWNSIEERRIHQESELHSYLSRLIAAERERELEECQRNHEGDEDDSHVRAQQACIEAKHDKYMADMDELFSQVDEKRKKRDIPDYLCGKISFELMREPCITPSGITYDRKDIEEHLQRVGHFDPVTRSPLTQEQLIPNLAMKEVIDAFISENGWVEDY",SI-induced cytotoxicity (LDH/MTT ratio),[1],mimicked the cytoprotection observed in CHIP-WT-expressing myocytes co-incubated with the SIL
same,ubiquitinated proteins after SI,ubiquitinated proteins,attenuated
